Entries after “also recorded” stand apart in the source; their conditions may differ.
Assay: Study 3: metformin pharmacokinetics alone or with filgotinib in healthy subjects
Conditions: filgotinib 200 mg once daily, metformin 850 mg

## CN(C)C(=N)N=C(N)N [Metformin, metformin]
  effect of filgotinib on metformin exposure (AUCinf, C max) (in words): did not alter; also recorded: no effect; also recorded: remained unchanged
